Assay results reported in patent publication US9694016B2 (Novartis AG, priority 2013, dated 2017).

Chains of the proteins cited; added tags and fusions are not shown.
UniProt P04049, whole entry Y340E/Y341E: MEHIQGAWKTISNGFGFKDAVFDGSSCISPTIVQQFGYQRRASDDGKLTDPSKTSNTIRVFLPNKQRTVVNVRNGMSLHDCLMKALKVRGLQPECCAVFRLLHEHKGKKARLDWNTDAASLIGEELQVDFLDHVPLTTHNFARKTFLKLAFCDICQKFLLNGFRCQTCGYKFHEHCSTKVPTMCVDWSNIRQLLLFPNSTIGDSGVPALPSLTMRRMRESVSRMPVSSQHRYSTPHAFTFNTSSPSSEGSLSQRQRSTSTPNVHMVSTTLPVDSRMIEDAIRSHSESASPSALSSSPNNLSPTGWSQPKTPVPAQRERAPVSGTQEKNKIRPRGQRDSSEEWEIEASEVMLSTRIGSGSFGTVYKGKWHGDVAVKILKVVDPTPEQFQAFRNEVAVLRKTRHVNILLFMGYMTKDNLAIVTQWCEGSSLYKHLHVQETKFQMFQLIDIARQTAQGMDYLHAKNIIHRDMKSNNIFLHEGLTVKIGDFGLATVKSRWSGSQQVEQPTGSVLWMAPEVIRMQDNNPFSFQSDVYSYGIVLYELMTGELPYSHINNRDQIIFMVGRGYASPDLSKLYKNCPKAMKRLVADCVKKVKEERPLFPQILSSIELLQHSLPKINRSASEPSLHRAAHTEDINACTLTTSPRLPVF

Target: C-Raf FL (full-length C-Raf protein, Y340E and Y341E activating mutations) (Homo sapiens (Human), UniProt P04049, Y340E/Y341E)
Type: biochemical
[1] = Table 2, AlphaScreen, 1 hour reaction, read-out: c-Raf FL IC-50

Compound	IC50 [1]	also measured
Cc1ncc(NC(=O)c2cccc(C(F)(F)F)c2)cc1-c1cnc(OC2CCCC(O)C2)c(N2CCOCC2)c1 (single isomer, unassigned) [Example 320, N-(6′-((3-hydroxycyclohexyl)oxy)-2-methyl-5′-morpholino-[3,3′-bipyridin]-5-yl)-3-(trifluoromethyl)benzamide]	400 pM	–
Cc1ccc(NC(=O)[C@@H]2CCN[C@H](C(F)(F)F)C2)cc1-c1cc(C2COCCO2)nc(N2CCOCC2)c1 (stereo in doubt) [Example 1132, N-(3-(2-(1,4-dioxan-2-yl)-6-morpholinopyridin-4-yl)-4-methylphenyl)-2-(trifluoromethyl)piperidine-4-carboxamide]	–	IC50 (AlphaScreen, 60 min pre-incubation, reaction 1 hour at room temperature, read-out: c-Raf FL IC-50): 61300 pM
Cc1ccc(C(=O)Nc2cccc(C(F)(F)F)c2)cc1-c1cc(N2CCOCC2=O)nc(N2CCOCC2)n1 [Example 4, 4-methyl-3-(2-morpholino-6-(3-oxomorpholino)pyrimidin-4-yl)-N-(3-(trifluoromethyl)phenyl)benzamide]	400 pM	–
Cc1ccc(C(=O)Nc2cccc(C(F)(F)F)c2)cc1-c1nc(N2CCOCC2)cc(N2CCOCC2)n1 [Example 14, 3-(4,6-dimorpholinopyrimidin-2-yl)-4-methyl-N-(3-(trifluoromethyl)phenyl)benzamide]	700 pM	–
Cc1ccc(NC(=O)c2cccc(S(C)(=O)=O)c2)cc1-c1cc(N2CCOCC2)nc(N2CCOCC2)n1 [Example 23, N-(3-(2,6-dimorpholinopyrimidin-4-yl)-4-methylphenyl)-3-(methylsulfonyl)benzamide]	600 pM	–
Cc1ccc(NC(=O)c2cc(C(C)(C)C)no2)cc1-c1cc(N2CCOCC2)nc(N2CCOCC2)n1 [Example 24, 3-(tert-butyl)-N-(3-(2,6-dimorpholinopyrimidin-4-yl)-4-methylphenyl)isoxazole-5-carboxamide]	300 pM	–
Cc1ccc(NC(=O)c2cc(C(C)(C)C)on2)cc1-c1cc(N2CCOCC2)nc(N2CCOCC2)n1 [Example 25, 5-(tert-butyl)-N-(3-(2,6-dimorpholinopyrimidin-4-yl)-4-methylphenyl)isoxazole-3-carboxamide]	400 pM	–
Cc1ccc(NC(=O)c2cccc(C(F)(F)F)c2)cc1-c1cc(N2CCOCC2)nc(S(C)(=O)=O)n1 [Example 27, N-(4-methyl-3-(2-(methylsulfonyl)-6-morpholinopyrimidin-4-yl)phenyl)-3-(trifluoromethyl)benzamide]	100 pM	–
CCNc1nc(-c2cc(NC(=O)c3cccc(C(F)(F)F)c3)ccc2C)cc(N2CCOCC2)n1 [Example 28, N-(3-(2-(ethylamino)-6-morpholinopyrimidin-4-yl)-4-methylphenyl)-3-(trifluoromethyl)benzamide]	200 pM	–
CNc1nc(-c2cc(NC(=O)c3cccc(C(F)(F)F)c3)ccc2C)cc(N2CCOCC2)n1 [Example 30, N-(4-methyl-3-(2-(methylamino)-6-morpholinopyrimidin-4-yl)phenyl)-3-(trifluoromethyl)benzamide]	300 pM	–
Cc1ccc(NC(=O)c2cccc(C(F)(F)F)c2)cc1-c1cc(N2CCOCC2)nc(-n2ccnc2)n1 [Example 33, N-(3-(2-(1H-imidazol-1-yl)-6-morpholinopyrimidin-4-yl)-4-methylphenyl)-3-(trifluoromethyl)benzamide]	100 pM	–
Cc1ccc(NC(=O)c2cccc(C(F)(F)F)c2)cc1-c1cc(N2CCOCC2)nc(OCCO)n1 [Example 34, N-(3-(2-(2-hydroxyethoxy)-6-morpholinopyrimidin-4-yl)-4-methylphenyl)-3-(trifluoromethyl)benzamide]	300 pM	IC50 (full-length C-Raf approximately 4 nM, ATP 1 uM, 60 min pre-incubation, 1 hour reaction): 304 pM
Cc1ccc(NC(=O)c2cccc(C(F)(F)F)c2)cc1-c1cc(N2CCOCC2)nc(NS(C)(=O)=O)n1 [Example 35, N-(4-methyl-3-(2-(methylsulfonamido)-6-morpholinopyrimidin-4-yl)phenyl)-3-(trifluoromethyl)benzamide]	600 pM	–
Cc1ccc(NC(=O)c2cccc(C(F)(F)F)c2)cc1-c1cc(N2CCOCC2)nc(N2CCCC2=O)n1 [Example 36, N-(4-methyl-3-(6-morpholino-2-(2-oxopyrrolidin-1-yl)pyrimidin-4-yl)phenyl)-3-(trifluoromethyl)benzamide]	500 pM	–
Cc1ccc(NC(=O)c2cccc(C(F)(F)F)c2)cc1-c1cc(N2CCOCC2)nc(NC(CO)CO)n1 [Example 39, N-(3-(2-((1,3-dihydroxypropan-2-yl)amino)-6-morpholinopyrimidin-4-yl)-4-methylphenyl)-3-(trifluoromethyl)benzamide]	300 pM	–
Cc1ccc(NC(=O)c2cccc(C(F)(F)F)c2)cc1-c1cc(N2CCOCC2)nc(OCCO)n1 [Example 40, N-(3-(2-(2-hydroxyethoxy)-6-morpholinopyrimidin-4-yl)-4-methylphenyl)-3-(trifluoromethyl)benzamide]	200 pM	–
Cc1ccc(NC(=O)c2cccc(C(F)(F)F)c2)cc1-c1cc(N2CC3(COC3)C2)nc(N2CCOCC2)n1 [Example 47, N-(4-methyl-3-(2-morpholino-6-(2-oxa-6-azaspiro[3.3]heptan-6-yl)pyrimidin-4-yl)phenyl)-3-(trifluoromethyl)benzamide]	400 pM	–
Cc1ccc(NC(=O)c2cccc(C(F)(F)F)c2)cc1-c1cc(N2CCOC[C@H]2CO)nc(N2CCOCC2)n1 [Example 48, (R)—N-(3-(6-(3-(hydroxymethyl)morpholino)-2-morpholinopyrimidin-4-yl)-4-methylphenyl)-3-(trifluoromethyl)benzamide]	300 pM	–

Compound	IC50 [1]	also measured
Cc1ccc(NC(=O)c2cccc(C(F)(F)F)c2)cc1-c1cc(N2C3CCC2COC3)nc(N2CCOCC2)n1 [Example 49, N-(3-(6-(3-oxa-8-azabicyclo[3.2.1]octan-8-yl)-2-morpholinopyrimidin-4-yl)-4-methylphenyl)-3-(trifluoromethyl)benzamide]	–	IC50 (read-out: c-Raf FL IC-50): 400 pM
Cc1ccc(NC(=O)c2cccc(C(F)(F)F)c2)cc1-c1cc(N2CCCOCC2)nc(N2CCOCC2)n1 [Example 50, N-(4-methyl-3-(2-morpholino-6-(1,4-oxazepan-4-yl)pyrimidin-4-yl)phenyl)-3-(trifluoromethyl)benzamide]	300 pM	–
Cc1ccc(NC(=O)c2cccc(C(F)(F)F)c2)cc1-c1cc(N2CC3CC2CO3)nc(N2CCOCC2)n1 (stereo not drawn) [Example 51, N-(3-(6-(2-oxa-5-azabicyclo[2.2.1]heptan-5-yl)-2-morpholinopyrimidin-4-yl)-4-methylphenyl)-3-(trifluoromethyl)benzamide]	700 pM	–
Cc1ccc(NC(=O)c2cccc(C(F)(F)F)c2)cc1-c1cc(N2CCO[C@H](C)C2)nc(N2CCOCC2)n1 [Example 53, (R)—N-(4-methyl-3-(6-(2-methylmorpholino)-2-morpholinopyrimidin-4-yl)phenyl)-3-(trifluoromethyl)benzamide]	700 pM	–
Cc1ccc(NC(=O)c2cccc(C(F)(F)F)c2)cc1-c1nc(N2CCOCC2)nc(N2CCOCC2)c1C [Example 57, N-(4-methyl-3-(5-methyl-2,6-dimorpholinopyrimidin-4-yl)phenyl)-3-(trifluoromethyl)benzamide]	200 pM	–
Cc1ncc(NC(=O)c2cccc(C(F)(F)F)c2)cc1-c1cnnc(N2CCOCC2)c1 [Example 58, N-(6-methyl-5-(6-morpholinopyridazin-4-yl)pyridin-3-yl)-3-(trifluoromethyl)benzamide]	1100 pM	–
Cc1ccc(NC(=O)c2cccc(C(F)(F)F)c2)cc1-c1cc(N2CCOCC2)cnn1 [Example 59, N-(4-methyl-3-(5-morpholinopyridazin-3-yl)phenyl)-3-(trifluoromethyl)benzamide]	400 pM	–
Cc1ccc(NC(=O)c2cccc(C(F)(F)F)c2)cc1-c1ccnc(N2CCOCC2)c1 [Example 62, N-(4-methyl-3-(2-morpholinopyridin-4-yl)phenyl)-3-(trifluoromethyl)benzamide]	200 pM	–
Cc1ccc(C(=O)Nc2cccc(C(F)(F)F)c2)cc1-c1ccnc(N2CCOCC2)c1 [Example 63, 4-Methyl-3-(2-morpholinopyridin-4-yl)-N-(3-(trifluoromethyl)phenyl)benzamide]	500 pM	–
Cc1ccc(C(=O)Nc2cccc(C(F)(F)F)c2)cc1-c1cc(N2CCOCC2)ccn1 [Example 64, 4-methyl-3-(4-morpholinopyridin-2-yl)-N-(3-(trifluoromethyl)phenyl)benzamide]	800 pM	–
Cc1ccc(NC(=O)c2cccc(C(F)(F)F)c2)cc1-c1cc(N2CCOCC2)nc(N2CCOCC2)c1 [Example 65, N-(3-(2,6-dimorpholinopyridin-4-yl)-4-methylphenyl)-3-(trifluoromethyl)benzamide]	200 pM	–
Cc1ccc(NC(=O)c2cccc(S(C)(=O)=O)c2)cc1-c1ccnc(N2CCOCC2)c1 [Example 68, N-(4-methyl-3-(2-morpholinopyridin-4-yl)phenyl)-3-(methylsulfonyl)benzamide]	100 pM	–
Cc1ccc(NC(=O)c2ccnc(S(C)(=O)=O)c2)cc1-c1ccnc(N2CCOCC2)c1 [Example 73, N-(4-methyl-3-(2-morpholinopyridin-4-yl)phenyl)-2-(methylsulfonyl)isonicotinamide]	300 pM	–
Cc1ccc(NC(=O)c2cccc(C(F)F)c2)cc1-c1ccnc(N2CCOCC2)c1 [Example 75, 3-(difluoromethyl)-N-(4-methyl-3-(2-morpholinopyridin-4-yl)phenyl)benzamide]	60 pM	–
Cc1ncc(NC(=O)c2cccc(C(F)(F)F)c2)cc1-c1ccnc(N2CCOCC2)c1 [Example 96, N-(2-methyl-2′-morpholino-[3,4′-bipyridin]-5-yl)-3-(trifluoromethyl)benzamide]	200 pM	–
Cc1ncc(NC(=O)c2cccc(C(F)F)c2)cc1-c1ccnc(N2CCOCC2)c1 [Example 99, 3-(difluoromethyl)-N-(2-methyl-2′-morpholino-[3,4′-bipyridin]-5-yl)benzamide]	200 pM	–
Cc1ncc(NC(=O)c2cccc(C(C)(F)F)c2)cc1-c1ccnc(N2CCOCC2)c1 [Example 101, 3-(1,1-difluoroethyl)-N-(2-methyl-2′-morpholino-[3,4′-bipyridin]-5-yl)benzamide]	300 pM	–

Where two headings read alike, the source gives them in different places.
